Measurements reported in paper PMC6510822, “Identification of anticancer OATP2B1 substrates by an in vitro triple-fluorescence-based cytotoxicity screen” (Archives of Toxicology, 2019).
Marks after values point to notes of the source that are not given here.

Legend:
[1] = test system: Mes-Sa-B1 cells (Pgp overexpressing); assay: Fluorescence-based cytotoxicity assay, Mes-Sa-B1 mOr
[2] = test system: A431-2B1 cells (OATP2B1 expressing); assay: Fluorescence-based cytotoxicity assay, OATP2B1-expressing A431-2B1 mCh

SMILES | SR (Mes-Sa-B1) [1] | SR (A431-2B1 vs parental A431), screening of DTP Oncology Set IV [2] | SR, co-culture [2] | SR, monoculture [2]
C1CN1c1nc(N2CC2)nc(N2CC2)n1 [NSC-9706, Triethylenemelamine] | 1.3 | 7.73 |  | 
Cc1c(N)nc([C@H](CC(N)=O)NC[C@H](N)C(N)=O)nc1C(=O)N[C@H](C(=O)N[C@H](C)[C@@H](O)[C@H](C)C(=O)N[C@H](C(=O)NCCc1nc(-c2nc(C(=O)NCCC[S+](C)C)cs2)cs1)[C@@H](C)O)[C@@H](OC1OC(CO)C(O)C(O)C1OC1OC(CO)C(O)C(OC(N)=O)C1O)c1cnc[nH]1 (stereo partly drawn) [NSC-125066, Bleomycin] | 1.44 | 10.15 | 9.01^** | 10.9^**
